Laboratory results as given in patent US6680322B2, “Compounds specific to adenosine A1 receptors and uses thereof” (OSI Pharmaceuticals, Inc., priority 1999, dated 2004).

Molecular target: A2a receptor (Homo sapiens, UniProt P29274)
Assay: Yeast-based A2a receptor assay (antagonist specificity)
Assay type: cell-based
Parameters: expressed in transfected cells; host or cells: Saccharomyces cerevisiae (CY8342-derived strains / CY8362, rat Gαs mutants E10K, D229S or E10K+D229S)

CCCn1c(=O)c2[nH]c(C3CCCC3)nc2n(CCC)c1=O
A2a receptor antagonist activity: relatively inert
